Source: PMC7036995 (Molecules, 2020)

Protein sequences, listed by entry. Tags and fused reporters are not part of them. Residues count along the entry.
UniProt P02768, 25-609: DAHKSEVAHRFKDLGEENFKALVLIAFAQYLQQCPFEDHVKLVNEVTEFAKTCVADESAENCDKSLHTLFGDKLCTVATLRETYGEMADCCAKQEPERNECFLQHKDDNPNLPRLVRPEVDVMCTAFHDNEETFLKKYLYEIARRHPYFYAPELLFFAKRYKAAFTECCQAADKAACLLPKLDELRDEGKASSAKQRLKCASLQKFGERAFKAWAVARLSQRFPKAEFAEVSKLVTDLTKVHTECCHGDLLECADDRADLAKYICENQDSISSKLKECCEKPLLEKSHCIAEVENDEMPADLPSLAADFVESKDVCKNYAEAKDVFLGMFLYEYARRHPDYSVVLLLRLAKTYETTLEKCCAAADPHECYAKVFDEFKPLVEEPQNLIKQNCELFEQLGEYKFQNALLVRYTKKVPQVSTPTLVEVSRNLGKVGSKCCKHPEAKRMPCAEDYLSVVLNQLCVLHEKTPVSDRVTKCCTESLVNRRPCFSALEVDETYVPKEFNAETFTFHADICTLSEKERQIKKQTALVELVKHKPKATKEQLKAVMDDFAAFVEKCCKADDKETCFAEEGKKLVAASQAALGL

Target: human serum albumin (HSA) (Homo sapiens, UniProt P02768)
Settings: ratio protein:ligand 1:4; HSA 1 μM, T = 310.15 K, pH 7.4

## O=c1c(O)c(-c2ccc(O)c(O)c2)oc2cc(O)cc(O)c12 [quercetin]
  α-Helix Content: 66.3 ± 1.5%
